One may read the pIC50 as the IC50 on a negative log10 scale, so that one unit is a factor of ten. Low values mean a high IC50, high ones a low IC50.

For one test, the target named is Collagenase 3 (Homo sapiens, UniProt P45452). The test can be described thus: Inhibitory activity against matrix metalloprotease-13 (MMP13).
For a further test, the target named is T1, Interstitial collagenase (Homo sapiens, UniProt P03956).
T1 sequence (P03956 whole entry): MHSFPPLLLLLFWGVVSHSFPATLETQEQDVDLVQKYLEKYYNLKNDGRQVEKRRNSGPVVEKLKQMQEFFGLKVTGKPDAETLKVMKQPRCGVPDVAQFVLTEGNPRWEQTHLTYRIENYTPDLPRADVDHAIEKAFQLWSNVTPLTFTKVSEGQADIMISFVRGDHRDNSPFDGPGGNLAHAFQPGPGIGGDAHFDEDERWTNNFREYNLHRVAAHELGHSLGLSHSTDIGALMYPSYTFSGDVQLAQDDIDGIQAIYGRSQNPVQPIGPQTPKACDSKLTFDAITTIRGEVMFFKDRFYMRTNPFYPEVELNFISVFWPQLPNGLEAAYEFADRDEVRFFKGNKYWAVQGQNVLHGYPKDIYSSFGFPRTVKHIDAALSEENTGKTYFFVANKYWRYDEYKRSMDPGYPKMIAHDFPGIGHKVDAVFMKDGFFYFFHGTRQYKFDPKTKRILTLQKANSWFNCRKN
Nature of the test: Inhibitory activity against matrix metalloprotease-1 (MMP1).

pIC50: −log10 of the molar value.

For the compound `CN1C(=O)N(C[C@H](C(=O)NO)[C@@H](CC2CCCC2)C(=O)N2CCCCC2)C(=O)C1(C)C`, the negative-log IC50 (pIC50) on Collagenase 3 was 8.47.

Turning to `O=C(O)[C@H]1[C@H](CN2C(=O)c3ccccc3C2=O)CC[C@@H]1S(=O)(=O)CCc1ccc(-c2ccc(F)cc2)cc1`, on Interstitial collagenase, the pIC50 is 5.23.

Source of the values: ChEMBL document CHEMBL1145069, “Stereospecific synthesis of 5-substituted 2-bisarylthiocyclopentane carboxylic acids as specific matrix metalloproteinase inhibitors” (J Med Chem, 2003).
